From patent USRE40850E1

Tests used:
[1] = target: PTH receptor present on the SaOS-2 (human osteosarcoma cells) (human (SaOS-2 human osteosarcoma cells)) (UniProt Q03431)
[2] = target: PTH receptor present on the SaOS-2 (human osteosarcoma cells) (human (SaOS-2 human osteosarcoma cells)) (UniProt Q03431); test: displacement of mono-125I-[Nle8,18,Tyr34(3-125I)]bPTH(1-34)NH2 from SaOS-2 cells; Kd defined as half maximal inhibition

Substance	EC50 (half maximal stimulation of adenylate cyclase, cAMP synthesis in SaOS-2 cells) [1] [nM]	Kd [2] [nM]
[Ahc^22, Leu^23,28,31, Glu^25, Lys^26,30, Aib^29]hPTHrP(1-34)NH2 (from UniProt P12272) (peptide)	0.3	–
[Cha^22, Ahc^23, Glu^25, Lys^26,30, Leu^28,31, Aib^29]hPTHrP(1-34)NH2 (from UniProt P12272) (peptide)	0.4	–
[Cha^22, Leu^23,28,31, Glu^25, Lys^26,30, Ahc^27, Aib^29]hPTHrP(1-34)NH2 (from UniProt P12272) (peptide)	2	60
[Glu^22,25,29, Leu^23,28,31, Lys^26, Ahc^30]hPTHrP(1-34)NH2 (from UniProt P12272) (peptide)	20	230
[Glu^22,25, Ahc^23, Lys^26,30, Leu^28,31, Aib^29]hPTHrP(1-34)NH2 (from UniProt P12272) (peptide)	3.9	70
[Glu^22,25, Leu^23,28,31, Ahc^24, Lys^26,30, Aib^29]hPTHrP(1-34)NH2 (from UniProt P12272) (peptide)	0.5	6
[Glu^22,25, Leu^23,28,31, Lys^26,30, Ahc^27, Aib^29]hPTHrP(1-34)NH2 (from UniProt P12272) (peptide)	3	230
[Glu^22,25, Leu^23,28, Lys^26,30, Aib^29, Ahc^31]hPTHrP(1-34)NH2 (from UniProt P12272) (peptide)	3.7	200
[Glu^22,25, Leu^23,31, Lys^26,30, Ahc^28, Aib^29]hPTHrP(1-34)NH2 (from UniProt P12272) (peptide)	0.5	–
[Glu^22,29, Leu^23,28,31, Aib^25, Lys^26,30, Ahc^27]hPTHrP(1-34)NH2 (from UniProt P12272) (peptide)	5	–
[Glu^22, Leu^23,28,31, Aib^25,29, Lys^26,30, Ahc^27]hPTHrP(1-34)NH2 (from UniProt P12272) (peptide)	2	–
